In test [1] the target is Estrogen receptor (Homo sapiens) (UniProt P03372). Kind of test: qHTS assay for small molecule agonists of estrogen receptor alpha signaling (AID 588514).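 Note: 0% = vehicle only and 100% = reference agonist; nearly all actives have a fitted effect of over 70% in size.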 As to conditions: ER-alpha-UAS-bla HEK293, beta-lactamase ratio, 18 h, percent of full estradiol response, vehicle zero; at 76.8 µM (top of the series). (In general: qHTS replaces the single test concentration by a dilution series.)

Amino acid sequences for entries named in this document (tags omitted). A change or cut given only in a name is not applied to a line headed by its entry.
UniProt P03372, whole entry, looked up: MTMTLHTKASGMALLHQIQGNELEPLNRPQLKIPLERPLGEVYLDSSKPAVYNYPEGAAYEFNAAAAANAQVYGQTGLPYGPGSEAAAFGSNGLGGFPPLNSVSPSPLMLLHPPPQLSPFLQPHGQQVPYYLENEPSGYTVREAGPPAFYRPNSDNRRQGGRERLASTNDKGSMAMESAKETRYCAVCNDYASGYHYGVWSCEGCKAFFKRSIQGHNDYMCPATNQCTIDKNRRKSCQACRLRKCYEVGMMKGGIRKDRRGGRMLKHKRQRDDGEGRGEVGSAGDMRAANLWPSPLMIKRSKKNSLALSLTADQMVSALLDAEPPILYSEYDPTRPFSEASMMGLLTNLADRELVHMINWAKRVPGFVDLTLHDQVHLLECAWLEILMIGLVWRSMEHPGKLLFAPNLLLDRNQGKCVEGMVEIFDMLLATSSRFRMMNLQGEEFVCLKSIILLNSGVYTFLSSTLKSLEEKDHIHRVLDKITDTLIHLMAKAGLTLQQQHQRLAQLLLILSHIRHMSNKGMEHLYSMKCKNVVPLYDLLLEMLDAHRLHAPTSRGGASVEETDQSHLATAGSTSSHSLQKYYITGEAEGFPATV
UniProt P19793: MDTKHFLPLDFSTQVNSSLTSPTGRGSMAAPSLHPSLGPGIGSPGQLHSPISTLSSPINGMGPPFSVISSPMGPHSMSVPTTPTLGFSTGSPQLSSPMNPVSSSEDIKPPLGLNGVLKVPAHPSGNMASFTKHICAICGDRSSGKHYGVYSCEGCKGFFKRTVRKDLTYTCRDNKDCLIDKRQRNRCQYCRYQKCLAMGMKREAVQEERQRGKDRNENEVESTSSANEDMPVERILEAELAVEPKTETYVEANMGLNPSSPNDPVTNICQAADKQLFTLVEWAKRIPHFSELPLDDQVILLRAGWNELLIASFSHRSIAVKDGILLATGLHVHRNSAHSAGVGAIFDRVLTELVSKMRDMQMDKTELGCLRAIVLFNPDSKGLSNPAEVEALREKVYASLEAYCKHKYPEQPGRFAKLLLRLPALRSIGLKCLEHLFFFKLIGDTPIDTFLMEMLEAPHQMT
UniProt Q07869: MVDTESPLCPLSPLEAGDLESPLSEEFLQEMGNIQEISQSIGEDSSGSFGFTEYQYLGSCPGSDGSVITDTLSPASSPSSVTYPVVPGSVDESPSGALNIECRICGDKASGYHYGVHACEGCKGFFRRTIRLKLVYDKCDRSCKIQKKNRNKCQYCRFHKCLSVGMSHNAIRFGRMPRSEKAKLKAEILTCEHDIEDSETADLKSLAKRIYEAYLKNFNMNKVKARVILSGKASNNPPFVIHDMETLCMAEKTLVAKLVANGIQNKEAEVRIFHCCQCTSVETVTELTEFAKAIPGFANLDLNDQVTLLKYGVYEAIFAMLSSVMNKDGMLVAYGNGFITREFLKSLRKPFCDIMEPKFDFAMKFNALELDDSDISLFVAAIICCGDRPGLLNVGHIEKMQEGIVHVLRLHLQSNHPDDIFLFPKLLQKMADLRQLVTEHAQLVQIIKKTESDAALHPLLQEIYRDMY
UniProt Q9R1A7: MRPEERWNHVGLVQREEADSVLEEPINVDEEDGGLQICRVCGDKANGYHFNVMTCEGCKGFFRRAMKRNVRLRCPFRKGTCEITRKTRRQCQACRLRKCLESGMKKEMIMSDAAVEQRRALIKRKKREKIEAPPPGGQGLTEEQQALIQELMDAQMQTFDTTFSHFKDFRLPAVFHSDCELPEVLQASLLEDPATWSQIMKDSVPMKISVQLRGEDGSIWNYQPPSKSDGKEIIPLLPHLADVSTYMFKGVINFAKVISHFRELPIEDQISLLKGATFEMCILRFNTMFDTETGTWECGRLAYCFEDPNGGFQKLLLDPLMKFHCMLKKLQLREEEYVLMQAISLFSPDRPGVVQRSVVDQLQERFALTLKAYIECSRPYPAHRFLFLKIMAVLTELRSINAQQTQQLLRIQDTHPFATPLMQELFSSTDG
UniProt Q03181: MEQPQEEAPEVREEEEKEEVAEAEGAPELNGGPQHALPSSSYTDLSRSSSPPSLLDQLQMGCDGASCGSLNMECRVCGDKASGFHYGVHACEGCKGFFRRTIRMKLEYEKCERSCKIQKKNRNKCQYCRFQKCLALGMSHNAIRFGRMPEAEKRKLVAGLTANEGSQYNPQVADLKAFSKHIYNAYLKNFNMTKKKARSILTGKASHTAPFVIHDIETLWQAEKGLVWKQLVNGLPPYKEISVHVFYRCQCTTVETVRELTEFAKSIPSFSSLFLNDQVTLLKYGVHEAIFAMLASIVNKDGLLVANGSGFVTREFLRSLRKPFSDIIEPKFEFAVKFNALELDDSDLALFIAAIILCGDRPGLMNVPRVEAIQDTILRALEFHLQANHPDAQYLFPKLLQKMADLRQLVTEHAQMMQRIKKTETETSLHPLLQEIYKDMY
UniProt P10828: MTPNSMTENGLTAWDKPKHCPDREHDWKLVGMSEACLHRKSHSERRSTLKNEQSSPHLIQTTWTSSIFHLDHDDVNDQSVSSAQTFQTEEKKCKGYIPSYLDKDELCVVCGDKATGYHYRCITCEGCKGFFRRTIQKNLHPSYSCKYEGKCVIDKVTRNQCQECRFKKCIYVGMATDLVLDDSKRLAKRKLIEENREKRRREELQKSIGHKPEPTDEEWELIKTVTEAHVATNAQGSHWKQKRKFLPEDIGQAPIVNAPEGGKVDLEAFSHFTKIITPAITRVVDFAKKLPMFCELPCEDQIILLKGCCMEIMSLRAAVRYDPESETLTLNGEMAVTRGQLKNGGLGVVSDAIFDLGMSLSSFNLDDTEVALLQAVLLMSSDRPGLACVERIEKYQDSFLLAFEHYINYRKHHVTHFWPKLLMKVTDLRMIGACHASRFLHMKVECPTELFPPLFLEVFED
UniProt Q07343: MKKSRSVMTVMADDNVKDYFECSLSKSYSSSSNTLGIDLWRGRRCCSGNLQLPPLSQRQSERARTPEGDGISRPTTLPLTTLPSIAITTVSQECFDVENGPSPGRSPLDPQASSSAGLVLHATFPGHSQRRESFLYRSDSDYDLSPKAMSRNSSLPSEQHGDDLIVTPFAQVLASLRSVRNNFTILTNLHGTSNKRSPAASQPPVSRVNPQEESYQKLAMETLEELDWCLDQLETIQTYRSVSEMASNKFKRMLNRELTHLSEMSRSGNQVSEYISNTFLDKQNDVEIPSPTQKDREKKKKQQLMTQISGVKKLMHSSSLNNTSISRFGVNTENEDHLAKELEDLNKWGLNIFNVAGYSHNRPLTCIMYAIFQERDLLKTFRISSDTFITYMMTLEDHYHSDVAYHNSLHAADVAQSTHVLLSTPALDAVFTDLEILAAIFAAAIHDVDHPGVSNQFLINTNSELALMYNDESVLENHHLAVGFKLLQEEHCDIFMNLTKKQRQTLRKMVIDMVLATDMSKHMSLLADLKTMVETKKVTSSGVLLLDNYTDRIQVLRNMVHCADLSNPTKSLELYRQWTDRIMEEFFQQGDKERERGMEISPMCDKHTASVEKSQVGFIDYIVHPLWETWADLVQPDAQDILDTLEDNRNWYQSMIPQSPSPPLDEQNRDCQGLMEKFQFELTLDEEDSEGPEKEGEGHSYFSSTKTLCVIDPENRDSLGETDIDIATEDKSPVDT

Test [2] concerns the target Bile acid receptor (Homo sapiens) (UniProt Q96RI1). Description: qHTS assay for small molecule antagonists of farnesoid X receptor signaling (AID 588526). Note: % is set by controls: 0 for no effect and ±100 for the full control effect. As to conditions: HEK293T FXR-UAS-bla, beta-lactamase ratio, antagonist mode; at 76.7 µM (top of the series).
The target is the same in test [3]. Description: qHTS assay for small molecule agonists of farnesoid X receptor signaling (AID 588527).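 Note: 0% = vehicle basal and 100% = reference agonist.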 As to conditions: HEK293T FXR-UAS-bla, beta-lactamase ratio, 16 h; stronger effect = higher value.
Test [4] has as its target Glucocorticoid receptor (Homo sapiens) (UniProt P04150). Description: qHTS assay for small molecule agonists of glucocorticoid receptor signaling (AID 588532; active = well fitted curve in the direction sought with a large enough effect in the signal ratio, with a control signal flat; the % refers to the signal ratio;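 note: 100% = dexamethasone at 0.1 µM and 0% = DMSO only wells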). As to conditions: HeLa MMTV-bla, beta-lactamase ratio, agonist, 18 h; stronger effect = higher value.
The target is the same in test [5]. Description: qHTS assay for small molecule antagonists of glucocorticoid receptor signaling (AID 588533; active = well fitted inhibition curve with a large enough effect in the signal ratio, with a control signal flat, not every such curve was filed as active; the % refers to the signal ratio;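 note: cells stimulated with 2 nM dexamethasone as agonist; % is set by controls: 0 for no effect and ±100 for the full control effect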). As to conditions: HeLa MMTV-bla, GRE beta-lactamase ratio, antagonist mode, 18 h; at 76.8 µM (top of the series).
For test [6], the target named is Peroxisome proliferator-activated receptor gamma (Homo sapiens) (UniProt P37231). Kind of test: qHTS assay for small molecule agonists of peroxisome proliferator-activated receptor gamma signaling (AID 588536; active = well fitted curve in the direction sought with a large enough effect in the signal ratio, with a control signal flat, not every such curve was filed as active; the % refers to the signal ratio;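 note: 0% = DMSO basal wells and 100% = rosiglitazone at 2 µM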). As to conditions: HEK293 PPARg-UAS-bla, beta-lactamase ratio, 16 h, percent of rosiglitazone response, DMSO as zero; at 76.7 µM (top of the series).
Test [7] shares this target. Kind of test: qHTS assay for small molecule antagonists of peroxisome proliferator-activated receptor gamma signaling (AID 588537; active = well fitted inhibition curve with a large enough effect in the signal ratio, with a control signal flat, not every such curve was filed as active; the % refers to the signal ratio;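 note: reporter cells co-stimulated with 50 nM rosiglitazone agonist during compound treatment; % of control where 0% means no effect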). As to conditions: HEK293 PPARg-UAS-bla, beta-lactamase ratio, antagonist mode; at 76.8 µM (top of the series). Put shortly:
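Antagonist-mode β-lactamase reporter screen run as a titration series. HEK293 PPARγ-UAS-bla cells are stimulated with rosiglitazone (50 nM final) for 16 h, then CCF4 is read at 460/530 nm. Data are scaled between DMSO and rosiglitazone and fitted to the Hill equation.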

Test [8] addresses Vitamin D3 receptor (Homo sapiens) (UniProt P11473). Kind of test: qHTS assay for small molecule antagonists of vitamin D receptor signaling (AID 588541).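 Note: receptor activated by calcitriol during compound treatment; % is set by controls: 0 for no effect and ±100 for the full control effect.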 As to conditions: HEK293T VDR-UAS-bla, beta-lactamase ratio, antagonist mode; at 76.7 µM (top of the series). The essentials: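 Antagonist-mode beta-lactamase reporter assay: HEK293T VDR-UAS-bla cells were exposed to titrated compound alongside 1-alpha,25-dihydroxyvitamin D3 at 3 nM final for 16 h. Values were normalized to the 50 nM agonist control and DMSO basal, with IC50 and efficacy from Hill equation fits.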

Test [9] deals with Retinoic acid receptor RXR-alpha (Homo sapiens) (UniProt P19793). Kind of test: qHTS assay for small molecule antagonists of retinoid X receptor alpha signaling (AID 588546; active = well fitted inhibition curve with a large enough effect in the signal ratio, with a control signal flat, not every such curve was filed as active; the % refers to the signal ratio;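 note: cells stimulated with 9-cis-retinoic acid as agonist; % is set by controls: 0 for no effect and ±100 for the full control effect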). To be noted: HEK293T RXRa-UAS-bla, beta-lactamase ratio, antagonist mode. The essentials:
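Beta-lactamase reporter inhibition, read as CCF4 fluorescence ratio (ex 405, em 460/530 nm) after 2 h at RT. HEK293T UAS-bla cells, 2500/well, were stimulated with 9-cis-RA at 500 or 100 nM final alongside test compound for 18 h at 37 C.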

Test [10] is described as follows: qHTS assay for small molecule agonists of the antioxidant response element (ARE) signaling pathway (AID 651741; active = well fitted activation curve with a large enough effect in the signal ratio; the % refers to the signal ratio; note: % of control where 0% means no effect). As to conditions: HepG2 ARE-bla reporter, beta-lactamase FRET ratio, 16 h; at 96 µM (top of the series). Put shortly: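 Beta-lactamase reporter under ARE control in HepG2 cells, 2,000 per well, was induced by 16 h compound treatment at 37 C. Read-out was fluorescence from LiveBLAzer B/G FRET substrate after 2 h at room temperature.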

A short description of test [11]: qHTS assay for small molecule activators of the p53 signaling pathway (AID 651743; active = well fitted activation curve with a large enough effect in the signal ratio, not every such curve was filed as active; the % refers to the signal ratio; note: % of control where 0% means no effect). To be noted: HCT-116 p53RE-bla, beta-lactamase FRET ratio, 16 h; activation: stronger effect = higher value.
A short description of test [12]: qHTS assay for small molecule activators of the nuclear factor-kappa B (NF-kB) signaling pathway (AID 651749; active = well fitted activation curve with a large enough effect in the signal ratio; the % refers to the signal ratio; note: % of control where 0% means no effect). To be noted: NF-kB-bla ME-180 cells, beta-lactamase FRET ratio, 16 h; stronger effect = higher value. The essentials:
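Activation measured after 16 hr compound treatment at 37C, 5% CO2, of 2,000 ME-180 cells/well stably expressing an NF-kB response element–driven beta-lactamase reporter, via FRET-disruption fluorescence.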

The nature of test [13]: qHTS assay for environmental chemicals that activate the Aryl hydrocarbon Receptor (AhR) signaling pathway (AID 651777; active = well fitted curve in the direction sought with a large enough effect; an effect the other way counts as inactive or inconclusive; note: % of control where 0% means no effect; nearly all actives have a fitted effect of over 15% in size). To be noted: 1A2-DRE human hepatoma cells, luciferase, 24 h; stronger effect = higher value. Put shortly: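 Reporter gene assay: hepatoma cells with DRE/CYP1A2-luciferase, 24 hr compound incubation at 37 C, 5% CO2, luminescence after One-Glo (30 min, RT).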
In test [14] the target is Peroxisome proliferator-activated receptor alpha (Homo sapiens) (UniProt Q07869). Kind of test: qHTS assay for small molecule agonists of the peroxisome proliferator-activated receptor alpha (PPARalpha) signaling pathway (AID 651778; active = well fitted curve in the direction sought with a large enough effect; an effect the other way counts as inactive or inconclusive; note: % of control where 0% means no effect). As to conditions: PathHunter PPARalpha complementation, chemiluminescence, 6 h; stronger effect = higher value.
Test [15] in a line: qHTS assay for small molecule agonists of the antioxidant response element (ARE) signaling pathway measured by Nrf2-dependant transcriptional activity (AID 720636; active = well fitted curve in the direction sought with a large enough effect in the repeat runs; an effect the other way counts as inactive or inconclusive;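 note: HepG2 cells with an ARE-driven luciferase reporter; % of control where 0% means no effect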). To be noted: ARE-luc HepG2, Nrf2 luciferase reporter, 16 h; at 92.4 µM (top of the series).
The nature of test [16]: qHTS assay for small molecule agonists of the antioxidant response element (ARE) signaling pathway measured by Nrf2-dependant transcriptional activity - cell viability counter screen (AID 720653; active = well fitted curve in the direction sought with a large enough effect in the repeat runs; an effect the other way counts as inactive or inconclusive; note: % is set by controls: 0 for no effect and ±100 for the full control effect). To be noted: ARE-bla HepG2 viability, CellTiter-Glo ATP luminescence, 16 h; stronger effect = lower value. The essentials: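 Cytotoxicity counter screen: intracellular ATP quantified by CellTiter-Glo luminescence in the same ARE-bla HepG2 plates, after 16 h compound exposure and a 2 h beta-lactamase substrate step.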

A short description of test [17]: qHTS assay for cell viability of HEK293 cells (AID 743288; active = well fitted curve in the direction sought with a large enough effect; an effect the other way counts as inactive or inconclusive; note: % is set by controls: 0 for no effect and ±100 for the full control effect; nearly all actives have a fitted effect of over 50% in size). As to conditions: ATP luminescence (CellTiter-Glo), 18 h; max response: stronger effect = lower value. The essentials:
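Quantitative high-throughput screen: compounds were pinned onto parental HEK293 cells (2,000 per well) after a minimum 5 h settling at 37 C, incubated 18 h at 37 C, and intracellular ATP measured by luciferase luminescence.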

Test [18] is described as follows: qHTS assay for cell viability of the p53RE-bla HCT-116 cell line (AID 743292; active = well fitted curve in the direction sought with a large enough effect; an effect the other way counts as inactive or inconclusive; note: % is set by controls: 0 for no effect and ±100 for the full control effect; nearly all actives have a fitted effect of over 55% in size). Put shortly: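 ATP-based luminescence, 16 h compound exposure at 37 C, p53RE-bla HCT-116 cells at 4,000/well.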
The target of test [19] is Nuclear receptor subfamily 1 group I member 2 (Rattus norvegicus) (UniProt Q9R1A7). Description: qHTS assay for small molecule activators of the rat pregnane X receptor (rPXR) signaling pathway (AID 651751; call rule not given here; note: 0% is about no effect). As to conditions: rPXR reporter cells, luciferase (One-Glo), 24 h.
The nature of test [20]: qHTS assay for small molecule activators of the human pregnane X receptor (PXR) signaling pathway (AID 720659; call rule not given here; note: 0% is about no effect). To be noted: DPX-2 HepG2 CYP3A4-luciferase, 24 h; at 92.3 µM (top of the series).
Test [21] in a line: Cell Proliferation Assay against the HBL1 Cell Line (AID 651646; active = well fitted curve in the direction sought with a large enough effect; an effect the other way counts as inactive or inconclusive;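 note: cells exposed to compound for 48 h before reading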). To be noted: HBL1 DLBCL cells; at 46.1 µM (top of the series) unless noted. The essentials:
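CellTiter-Glo luminescence after 48 h compound exposure at 37C gives percent activity, with DMSO as 100% and 9.2 uM bortezomib final as 0%. Cells: 500 log-phase HBL1 per well, RPMI plus 5% FBS.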

For test [22], the target named is Peroxisome proliferator-activated receptor delta (Homo sapiens) (UniProt Q03181). Description: qHTS assay for small molecule agonists of peroxisome proliferator-activated receptor delta signaling (AID 588534).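 Note: 0% = DMSO basal wells and 100% = positive control agonist at 10 µM.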 As to conditions: HEK293T PPARdelta-UAS-bla, beta-lactamase ratio, 18 h; at 76.7 µM (top of the series).
The target is the same in test [23]. Kind of test: qHTS assay for small molecule antagonists of peroxisome proliferator-activated receptor delta signaling (AID 588535; active = well fitted inhibition curve with a large enough effect in the signal ratio, with a control signal flat, not every such curve was filed as active; the % refers to the signal ratio). As to conditions: HEK293T PPARd-UAS-bla, beta-lactamase FRET ratio, 18 h; at 76.7 µM (top of the series).
The target of test [24] is Vitamin D3 receptor (Homo sapiens) (UniProt P11473). Description: qHTS assay for small molecule agonists of vitamin D receptor signaling (AID 588543).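 Note: 0% = DMSO basal and 100% = reference agonist control.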 To be noted: HEK293T VDR-UAS-bla, beta-lactamase ratio, 16 h; at 76.8 µM (top of the series). The essentials:
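qHTS in agonist mode: compound titrations stimulate a VDR-driven β-lactamase reporter in HEK293T cells over 16 h at 37 °C. Response normalized to 50 nM 1α,25-dihydroxyvitamin D3 = 100%, DMSO = 0%; Hill fitting gives EC50 and maximal response.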

Test [25] has as its target Retinoic acid receptor RXR-alpha (Homo sapiens) (UniProt P19793). Description: qHTS assay for small molecule agonists of retinoid X receptor alpha signaling (AID 588544).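 Note: 0% = DMSO basal wells and 100% = reference agonist.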 As to conditions: HEK293T RXRa-UAS-bla, beta-lactamase reporter, 18 h; at 76.7 µM (top of the series).
Test [26] concerns the target Thyroid hormone receptor beta (Homo sapiens) (UniProt P10828). Description: qHTS assay for small molecule antagonists of thyroid hormone receptor beta signaling (AID 588547; active = well fitted inhibition curve with a large enough effect in the signal ratio, with a control signal flat, not every such curve was filed as active; the % refers to the signal ratio). As to conditions: TR-UAS-bla HEK293, beta-lactamase ratio, antagonist mode, 18 h; stronger effect = lower value. Put shortly: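 Inhibition of T3-driven (0.4nM final) beta-lactamase reporter activity was measured over 0.59 nM to 92 uM compound after 18 h at 37 C. The cells were GripTite HEK293 TR-UAS-bla in charcoal/dextran-stripped serum, with CCF4 ratio read-out and IC50 from Hill fits.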

Test [27] is described as follows: NFAT Signaling Pathway (AID 444; active = well fitted curve in either direction with a large enough effect, not every such curve was filed as active). As to conditions: Jurkat NFAT-bla M1, carbachol, beta-lactamase ratio, 5 h; at 7.69 µM (top of the series) unless noted.
Test [28] concerns the target 3',5'-cyclic-AMP phosphodiesterase 4B (Homo sapiens) (UniProt Q07343). Description: qHTS Assay for Inhibitors of PDE-IV (AID 607; active = well fitted activation curve with a large enough effect in the main read-out, with a control signal flat, not every such curve was filed as active; note: % of control where 0% means no effect). As to conditions: HEK293 ACTOne CNG channel cells, membrane potential fluorescence; at 22.9 µM (top of the series). Put shortly: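 HEK293 ACTOne cells with CNG channel (1000/well), endogenous PDE4; membrane potential dye, compounds up to 22.9 uM final. Fluorescence Ex 535/Em 590; RO 20-1724 (100 uM final) as reference.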

Test [29] is described as follows: qHTS Assay for Identification of Small Molecule Agonists for Hypoxia Response Element Signaling Pathway (AID 914; active = well fitted activation curve with a large enough effect in the signal ratio, with a control signal flat, not every such curve was filed as active; the % refers to the signal ratio; note: % of control where 0% means no effect). To be noted: ME-180 (cervical carcinoma) HRE-bla reporter, beta-lactamase ratio, CoCl2, 17 h; stronger effect = higher value.

This is a selection; strong and weak results do not stand in their true shares. Records with an inconclusive call do not appear. For some of these results: Potency and affinity values are given separately. Active and inactive are the calls of the source. Unless noted, calls come from the whole dose curve.

As a reminder, the inhibition is the percentage by which the read-out fell short of the control.

`COP(=S)(Cl)OC`: the activation in test [1] was inactive: 1.03%; in test [3] it was inactive: -0.998%; in test [4], inactive: 5.42%; in test [6], inactive: -3.37%; in test [10] it was inactive: 0.906%; in [11] it was inactive: -7.06%. Further, the activation is inactive: -2.19% in [12], inactive: -2.15% in [13], inactive: 0.428% in test [15] and inactive: -2.27% in [20]. The activity change, negative = inhibition is inactive: -5.46% in [2], inactive: 7.99% in [5] and inactive: 3.97% in test [8]. Besides, the activity, negative = inhibition in test [7] is inactive: -2.78%. The max response in test [9] is inactive: -3.07%; in test [14], inactive: 1.16%; in test [16], inactive: -3%; in test [17], inactive: -5.03%; in [19], inactive: -3.26%. The Potency result in test [18] is “inactive”.
As to `O=C(NOC[C@H](O)CO)c1ccc(F)c(F)c1Nc1ccc(I)cc1F`, the viability, percent of control in [21] turned out to be 76.6%.
Turning to `ClP(Cl)c1ccccc1`, the activation was inactive: -4.06% in test [1]; inactive: 2.26% in [4]; inactive: -0.842% in [22]; inactive: -3.67% in test [6]; inactive: 2.6% in test [24]; inactive: 0.0329% in [25]. Also, the activation is inactive: 5.61% in [10]; inactive: 1.6% in test [11]; inactive: -0.109% in test [12]; inactive: 0.765% in test [15]; inactive: -2.82% in test [20]. Further, the activity change, negative = inhibition is inactive: 2.03% in test [5], inactive: 2.2% in test [23] and inactive: 3.72% in [8]. Moreover, in test [7], the activity, negative = inhibition was inactive: 10.2%. The max response in test [9] is inactive: -9.65%; in test [14] it was inactive: 4.01%; in [16] it was inactive: -10%; in test [17], inactive: -7.99%; in test [19], inactive: 1.68%. Also, in test [26], the inhibition was inactive: 7.51%. Also, the Potency entry in test [18] is “inactive”.
`[N-]=[N+]=Nc1ccc([As](=O)(O)O)cc1`: the activity change, negative = inhibition in test [27] is inactive: 16.2%. The activation (PDE inhibition) in test [28] was inactive: -0.71%.
Turning to `Cc1ccc(OCC(=O)OC2CN3CCC2CC3)cc1` (stereo unspecified), the activation in [29] was inactive: 7.31%.

For the origin of these results see PubChem BioAssay (NCATS).
